From US5597798A, “Taxol and epidermal growth factor used to enhance treatment of ovarian cancer” (The Regents of the University of California, priority 1994, dated 1997)

Tested on: 2008 human ovarian carcinoma cells
Experiment: Colony forming assay, effect of EGF on sensitivity to cytotoxic agents
Assay type: cell-based
Conditions: for effect of EGF on sensitivity of 2008 cells to the agent (in words): EGF and the cytotoxic agent concurrently for 1 h; for Dose modifying factor (ratio of the IC50 values in control and EGF-treated cells): mean ± SD of at least 3 experiments

Substance | effect of EGF on sensitivity of 2008 cells to the agent (in words) | Dose modifying factor (ratio of the IC50 values in control and EGF-treated cells)
4-hydroperoxycyclophosphamide | no significant effect | 0.9 ± 0.5
tetraplatin | significant increase in sensitivity | 1.6 ± 0.1
